Patent publication US20240287457A1, “COMPOSITIONS AND CELL CULTURE MEDIA FOR INCREASING NEUTROPHIL LIFESPAN” (THE CHILDREN'S MEDICAL CENTER CORPORATION, priority 2021, published 2024)
Where a SMILES comes first, the peptide text is derived from it. The star is where a group is joined. Cbz = O=C(OCc1ccccc1)*; CH2F = FC*

Assays:
[1] = tested on: murine neutrophils; test: In vitro neutrophil death / survival of cultured murine neutrophils; type: cell-based, mouse
[2] = tested on: human neutrophils; test: In vitro neutrophil death / survival of cultured human neutrophils

Structure (SMILES) | Neutrophil survival after 3 days - normalized to fresh neutrophils (100) [1] | Neutrophil survival after 3 days - normalized to fresh neutrophils (100) [2]
CC(=O)N[C@@H](CC(C)C)C(=O)N[C@@H](CCC(=O)O)C(=O)N[C@@H](Cc1cnc[nH]1)C(=O)N[C@H](C=O)CC(=O)O [Ac-LEHD-CHO] (Ac-LEHD-aldehyde) | <10 | <25
c1ccc2c(c1)[I+]c1ccccc1-2 [DPI, Diphenyleneiodonium chloride] | <10 | <25
CC[C@H](C)[C@H](NC(=O)OCc1ccccc1)C(=O)N[C@@H](CCC(=O)OC)C(=O)N[C@H](C(=O)N[C@@H](CC(=O)OC)C(=O)CF)[C@@H](C)O [Z-IETD-FMK] (Cbz-IE(OMe)TD(OMe)-CH2F) | <10 | <25
CC[C@H](C)[C@H](NC(=O)[C@H](CCC(=O)OC)NC(=O)[C@@H](NC(=O)OCc1ccccc1)C(C)C)C(=O)N[C@@H](CC(=O)OC)C(=O)CF [Z-VEID-FMK] (Cbz-VE(OMe)ID(OMe)-CH2F) |  | <25
COC(=O)C[C@H](NC(=O)[C@H](C)NC(=O)[C@@H](NC(=O)[C@H](Cc1ccc(O)cc1)NC(=O)OCc1ccccc1)C(C)C)C(=O)CF [Z-YVAD-FMK] | <10 | <25
